Legend:
Assay in all cases: FP
Conditions in all cases: domain or fragment
[1] = target: ATS‐C fragment of PfEMP1 variant PFL0020w (Plasmodium falciparum)
PF08_0141 ATS-C = target: PF08_0141 ATS-C
[2] = target: ATS‐C fragment of PfEMP1 variant PF07_0050 (Plasmodium falciparum)

Work on PFE1605w PHIST domain yielded a Kd [1] of 25 µM, a Kd (PF08_0141 ATS-C) of 3.6 µM and a Kd [2] of 15 µM.

From publication PMC5103180
